Results reported in patent publication US20030099674A1 (priority 2001, published 2003).

Assay: Solubility of paclitaxel in oil emulsions containing soy lecithin
Conditions: 30 mg/g soy lecithin, 100 mg/g oil, 115 mg/g sucrose

CC(=O)O[C@H]1C(=O)[C@@]2(C)[C@H]([C@H](OC(=O)c3ccccc3)[C@]3(O)C[C@H](OC(=O)[C@H](O)[C@@H](NC(=O)c4ccccc4)c4ccccc4)C(C)=C1C3(C)C)[C@]1(OC(C)=O)CO[C@@H]1C[C@@H]2O [paclitaxel]
Solubility at 5° C. (Corn oil emulsion): 15 mg/g of oil | Solubility at 5° C. (Cottonseed oil emulsion): 20 mg/g of oil | Solubility at 25° C. (Cottonseed oil emulsion): 9 mg/g of oil | Solubility at 5° C. (Ethyl oleate emulsion): 6 mg/g of oil | Solubility at 25° C. (Ethyl oleate emulsion): 5 mg/g of oil | Solubility at 5° C. (MCT emulsion): 22 mg/g of oil | Solubility at 25° C. (MCT emulsion): 14 mg/g of oil | Solubility at 5° C. (Safflower oil emulsion): 12 mg/g of oil | Solubility at 25° C. (Safflower oil emulsion): 9 mg/g of oil | Solubility at 5° C. (Sesame oil emulsion): 30 mg/g of oil | Solubility at 25° C. (Sesame oil emulsion): 20 mg/g of oil | Solubility at 25° C. (Soybean oil emulsion): 5 mg/g of oil | Solubility at 5° C. (Vitamin E emulsion): 0 mg/g of oil | Solubility at 25° C. (Vitamin E emulsion): 0 mg/g of oil
